Measured values from patent US12281308B2, “Inhibition of protein kinases to treat Friedreich ataxia” (University of Massachusetts, priority 2018, dated 2025).

Key:
Assay type in all cases: cell-based, human
mutant FXN gene [1] = details: FRDA neurons; fasudil 1 μM, ripasudil 0.5 μM, Y27632 0.5 μM vs DMSO
Text: (§1) FIGS. 2A-D. The protein kinase FXN-RFs also mediate epigenetic repression of the mutant FXN gene in post-mitotic FRDA neurons and cardiomyocytes. (A, B) qRT-PCR analysis monitoring FXN transcription (A) and immunoblot analysis showing frataxin levels (B) in FRDA neurons expressing an shRNA targeting a protein kinase FXN-RF. (C, D) qRT-PCR analysis monitoring FXN transcription (C) and immunoblot analysis showing frataxin levels (D) in FRDA cardiomyocytes (CMCs) expressing an shRNA targeting a protein kinase FXN-RF. […] TPM, transcripts per million. […] We next asked whether inhibition of the 8 protein kinase FXN-RFs would also upregulate transcription of the mutant FXN gene in post-mitotic neurons and cardiomyocytes, the cell types most relevant to FRDA. To derive post-mitotic FRDA neurons, FRDA (GM23404) iPSCs were stably transduced with lentiviral vectors expressing Neurogenin-1 and Neurogenin-2 to promote neuronal differentiation, according to published methods (Busskamp et al., Mol Syst Biol, 2014, 10:760); for convenience, we refer to these cells as FRDA neurons.

mutant FXN gene [2] = details: FRDA cardiomyocytes; fasudil 1 μM, ripasudil 0.5 μM, Y27632 0.5 μM vs DMSO
Text: (§2) FIGS. 2A-D. The protein kinase FXN-RFs also mediate epigenetic repression of the mutant FXN gene in post-mitotic FRDA neurons and cardiomyocytes. (A, B) qRT-PCR analysis monitoring FXN transcription (A) and immunoblot analysis showing frataxin levels (B) in FRDA neurons expressing an shRNA targeting a protein kinase FXN-RF. (C, D) qRT-PCR analysis monitoring FXN transcription (C) and immunoblot analysis showing frataxin levels (D) in FRDA cardiomyocytes (CMCs) expressing an shRNA targeting a protein kinase FXN-RF. […] TPM, transcripts per million. […] To derive FRDA cardiomyocytes, FRDA (GM23404) iPSCs were cultured for two days with chemically defined medium (“CDM3”, consisting of RPMI 1640 medium, albumin and ascorbic acid) supplemented with the GSK3ß inhibitor and Wnt signaling activator CHIR99021, then cultured for two days with CDM3 supplemented with the Wnt inhibitor Wnt-C59, and finally cultured with CDM3 alone, as previously described (Burridge et al., PLOS One, 2011, 6 (4):e18293. Ten days post-differentiation, beating colonies were dissociated and re-seeded to derive single cardiomyocytes: for convenience, we refer to these cells as FRDA cardiomyocytes.

frataxin [3] = assay: Immunoblot analysis of frataxin levels in FRDA neurons; details: fasudil 1 μM, ripasudil 0.5 μM, Y27632 0.5 μM vs DMSO
Text: as §1

frataxin [4] = assay: Immunoblot analysis of frataxin levels in FRDA cardiomyocytes; details: fasudil 1 μM, ripasudil 0.5 μM, Y27632 0.5 μM vs DMSO
Text: as §2

FRDA neurons = assay: MitoSOX staining and flow cytometry (mitochondrial ROS) in FRDA neurons; details: fasudil 1 μM, ripasudil 0.5 μM, Y27632 0.5 μM vs DMSO
Text: (§3) FIGS. 3A-D. Inhibition of protein kinase FXN-RFs can ameliorate characteristic mitochondrial defects of FRDA post-mitotic neurons and cardiomyocytes. (A, B) Quantification of flow cytometry analysis of normal and FRDA neurons (A) or normal and FRDA CMCs (B) expressing an FXN-RF shRNA and stained with MitoSOX. (C, D) Analysis of the mitochondrial oxygen consumption rate in normal and FRDA neurons (C) or normal and FRDA CMCs (D) expressing an FXN-RF shRNA. […] (C, D) Analysis of the mitochondrial oxygen consumption rate in FRDA neurons (C) or FRDA CMCs (D) treated with a small molecule ROCK1/2 inhibitor. (E, F) Immunoblot analysis showing levels of mitochondrial proteins ACO and ISCU in FRDA neurons (E) or FRDA CMCs (F) treated with fasudil (1 μM), KD025 (1 μM), or ripasudil (0.5 μM). […] We next asked whether FXN-RF inhibition could ameliorate two characteristic mitochondrial defects of FRDA neurons and cardiomyocytes: increased levels of reactive oxygen species (ROS) and decreased oxygen consumption. In the first set of experiments, FRDA neurons and cardiomyocytes expressing a protein kinase FXN-RF shRNA were stained with MitoSOX (an indicator of mitochondrial superoxide levels and mitochondrial ROS production) followed by flow cytometry analysis. As expected. FRDA neurons and cardiomyocytes had increased levels of mitochondrial ROS production compared to normal neurons and cardiomyocytes (FIGS. 3A, B). […] In the second set of experiments, we measured mitochondrial oxygen consumption rate, which is related to ATP production, using an Agilent Seahorse XF Analyzer. As expected, mitochondrial oxygen consumption rate in FRDA neurons and cardiomyocytes was ˜60% of the level observed in normal neurons and cardiomyocytes (FIGS. 3C, D).

FRDA cardiomyocytes = assay: MitoSOX staining and flow cytometry (mitochondrial ROS) in FRDA cardiomyocytes; details: fasudil 1 μM, ripasudil 0.5 μM, Y27632 0.5 μM vs DMSO
Text: as §3

Row | SMILES | transcription of the mutant FXN gene (FXN mRNA) (mutant FXN gene [1]) | transcription of the mutant FXN gene (FXN mRNA) (mutant FXN gene [2]) | frataxin protein levels (frataxin [3]) | frataxin protein levels (frataxin [4]) | mitochondrial ROS production (MitoSOX) (FRDA neurons) | mitochondrial ROS production (MitoSOX) (FRDA cardiomyocytes)
1 | C[C@H]1CNCCCN1S(=O)(=O)c1cccc2cncc(F)c12 [ripasudil, 4-fluoro-5-[[(2S)-2-methyl-1,4-diazepan-1-yl]sulfonyl]isoquinoline] | upregulated transcription of the mutant FXN gene | upregulated transcription of the mutant FXN gene | restored FXN mRNA and frataxin protein to normal levels | restored FXN mRNA and frataxin protein to normal levels | decreased mitochondrial ROS production | decreased mitochondrial ROS production
2 | C[C@@H](N)[C@H]1CC[C@H](C(=O)Nc2ccncc2)CC1.Cl.Cl [Y27632, (+)-(R)-trans-4-(1-aminoethyl)-N-(4-pyridyl)cyclohexanecarboxamide dihydrochloride] | upregulated transcription of the mutant FXN gene | upregulated transcription of the mutant FXN gene | restored FXN mRNA and frataxin protein to normal levels | restored FXN mRNA and frataxin protein to normal levels | decreased mitochondrial ROS production | decreased mitochondrial ROS production
3 | O=S(=O)(c1cccc2cnccc12)N1CCCNCC1 [fasudil, 1-(5-isoquinolinesulfonyl)-homopiperazine] | upregulated transcription of the mutant FXN gene | upregulated transcription of the mutant FXN gene | restored FXN mRNA and frataxin protein to normal levels | restored FXN mRNA and frataxin protein to normal levels | decreased mitochondrial ROS production | decreased mitochondrial ROS production

Like-named read-outs stand apart in the source and are kept apart here.
